Results reported in patent US20260384424A1, “HETEROCYCLIC COMPOUND” (published 2026).

Amino acid sequences for entries named in this document (tags omitted).
UniProt O75116, whole entry: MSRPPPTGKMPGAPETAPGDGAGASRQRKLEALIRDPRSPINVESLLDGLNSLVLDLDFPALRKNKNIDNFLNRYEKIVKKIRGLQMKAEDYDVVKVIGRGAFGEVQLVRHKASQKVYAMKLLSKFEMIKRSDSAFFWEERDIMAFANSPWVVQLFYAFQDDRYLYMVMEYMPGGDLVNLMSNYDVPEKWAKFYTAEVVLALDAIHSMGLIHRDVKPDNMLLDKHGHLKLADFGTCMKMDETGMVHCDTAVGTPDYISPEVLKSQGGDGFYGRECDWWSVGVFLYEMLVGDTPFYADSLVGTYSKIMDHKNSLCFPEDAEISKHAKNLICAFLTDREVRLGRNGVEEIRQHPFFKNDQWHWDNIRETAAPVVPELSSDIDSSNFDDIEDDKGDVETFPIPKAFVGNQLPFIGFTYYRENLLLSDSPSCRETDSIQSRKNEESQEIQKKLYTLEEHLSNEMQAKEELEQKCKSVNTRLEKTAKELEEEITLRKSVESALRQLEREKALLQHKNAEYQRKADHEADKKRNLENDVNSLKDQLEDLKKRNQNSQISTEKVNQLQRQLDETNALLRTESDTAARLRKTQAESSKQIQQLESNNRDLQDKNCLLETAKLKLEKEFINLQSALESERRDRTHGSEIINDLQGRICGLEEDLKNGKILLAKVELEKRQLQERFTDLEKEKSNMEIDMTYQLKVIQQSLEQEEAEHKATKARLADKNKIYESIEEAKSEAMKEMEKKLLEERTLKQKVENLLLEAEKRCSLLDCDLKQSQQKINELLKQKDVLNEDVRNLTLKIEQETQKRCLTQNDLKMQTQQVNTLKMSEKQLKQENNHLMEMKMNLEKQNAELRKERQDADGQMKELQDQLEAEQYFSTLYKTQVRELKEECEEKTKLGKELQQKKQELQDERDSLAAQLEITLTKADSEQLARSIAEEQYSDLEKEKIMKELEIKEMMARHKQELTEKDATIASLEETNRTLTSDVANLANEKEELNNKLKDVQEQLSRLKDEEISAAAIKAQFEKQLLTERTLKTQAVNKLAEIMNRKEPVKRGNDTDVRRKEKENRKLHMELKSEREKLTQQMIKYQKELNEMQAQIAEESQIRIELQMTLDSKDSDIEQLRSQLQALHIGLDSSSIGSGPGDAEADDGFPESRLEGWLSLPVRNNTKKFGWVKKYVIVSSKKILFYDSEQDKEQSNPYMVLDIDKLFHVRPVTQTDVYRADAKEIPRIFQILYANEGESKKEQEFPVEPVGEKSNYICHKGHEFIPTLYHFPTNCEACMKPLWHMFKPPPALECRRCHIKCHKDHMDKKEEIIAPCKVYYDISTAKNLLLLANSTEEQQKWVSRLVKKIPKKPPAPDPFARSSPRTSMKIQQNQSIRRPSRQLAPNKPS

Target: ROCK2 protein (Homo sapiens, UniProt O75116)
Assay: Degradation inducing activity of ROCK2 protein in HUVEC cells, Western Blotting
Conditions: 24 hours
Protocol: In vitro degradation inducing activity of ROCK2 protein of compounds of Examples was evaluated by Western Blotting (WB).
By a test compound, 10 mM DMSO solution was prepared, which was used as a 10 μM test compound solution. Further, the solution was diluted 10-fold with DMSO to prepare a 1 mM solution, which was used as a 1 μM test compound solution.
HUVEC cells (ATCC: CRL-1730, Lot: 70041472) were cultured in F-12K medium supplemented with 10% FBS, 0.1 mg/mL heparin, 30 mg/mL Endothelial Cell Growth Supplement (ECGS, Corning), and 1% Penicillin/Streptomycin. The HUVEC cells seeded in a 24 well plate at 50,000 cells/well/i mL were cultured for 24 hours, and then 1 μL of DMSO or a test compound solution was added thereto and treatment was performed for 24 hours. Cells were harvested and lysed for 20 minutes on ice using lysis buffer (Cell Signaling Technology, Cat #9803) supplemented with protease inhibitor cocktail (Sigma, Cat #P8340; Roche, Cat #P11873580001), and phosphatase inhibitor cocktail (Sigma, Cat #P5726, P0044). The lysate was sonicated (15 seconds, amplitude 30%, 1 cycle) and then centrifuged at 12500 rpm for 15 minutes at 4 °C. The protein concentration was determined by BCA assay kit (Thermo Fisher Scientific, Cat #23225).
The western blotting was performed using Simple Western JESS (protein simple). A cell lysis sample (protein amount; about 1.06 μg) was loaded on a plate of Simple Western JESS, and the expression level of ROCK2 protein was detected using a 12-230 kDa Wes Separation Module (Protein simple, Cat #SM-W004), an Anti-Rabbit Detection Module for Wes (Protein simple, Cat #DM-001), and a Total Protein Detection Module for Wes (Protein simple, Cat #DM-TP01). As the primary antibody, a material obtained by diluting ROCK2 (D1B1) Rabbit mAb (Cell Signaling Technology, Cat #9029) at 1:10 was used, and as the secondary antibody, a material obtained by diluting HRP-labeled anti-rabbit IgG antibody (Cell Signaling Technology, Cat #7074S) at 1:100 was used. The expression level of the target protein was standardized using the total protein amount loaded as a reference. The standardized expression level data of the control (DMSO) was taken as 100%, and the degradation rate (%) was calculated from the average standardized expression level data of the test compound. All analysis steps, such as data detection and analysis, are fully automated.
With respect to the ROCK2 protein degradation rate of the test compound, the protein degradation rates (%) at the evaluation concentrations were set to A≥75%, 75%>B≥50%, 50%>C≥25%, and D<25%, and are shown in Table 7.

COC[C@H]1CN[C@H](C)CN1CC(=O)N1CC(C)(C)c2nc(CN(C)CCOCCOCCOCCOCCOCCOCCOCCNC[C@@H](C(=O)Nc3ccc4cnccc4c3)c3ccccc3)c(Cc3ccc(F)cc3)cc21
ROCK2 protein degradation rate (at 1 μm): B (75%>B≥50%)
ROCK2 protein degradation rate (at 10 μm): A (A≥75%)

COC[C@H]1CN[C@H](C)CN1CC(=O)N1CC(C)(C)c2nc(CN(C)CCOCCOCCOCCOCCOCCN[C@H](Cc3cccc(F)c3)C(=O)Nc3ccc(-c4ccncc4)cc3)c(Cc3ccc(F)cc3)cc21
ROCK2 protein degradation rate (at 1 μm): D (D<25%)
ROCK2 protein degradation rate (at 10 μm): A (A≥75%)

COC[C@H]1CN[C@H](C)CN1CC(=O)N1CC(C)(C)c2ncc(Cc3ccccc3OCCOCCOCCOCCOCCN[C@H](C)c3ccc(C(=O)Nc4ccncc4)cc3)cc21
ROCK2 protein degradation rate (at 1 μm): D (D<25%)
ROCK2 protein degradation rate (at 10 μm): B (75%>B≥50%)

COC[C@H]1CN[C@H](C)CN1CC(=O)N1CC(C)(C)c2ncc(Cc3cccc(OCCOCCOCCOCCOCCOCCOCCNC[C@@H](C(=O)Nc4ccc5cnccc5c4)c4ccccc4)c3)cc21
ROCK2 protein degradation rate (at 1 μm): C (50%>C≥25%)
ROCK2 protein degradation rate (at 10 μm): A (A≥75%)

COC[C@H]1CN[C@H](C)CN1CC(=O)N1CC(C)(C)c2ncc(Cc3ccccc3OCCOCCOCCOCCOCCOCCOCCOCCN[C@H](C)c3ccc(C(=O)Nc4ccncc4)cc3)cc21
ROCK2 protein degradation rate (at 1 μm): A/A (A≥75%)
ROCK2 protein degradation rate (at 10 μm): A/A (A≥75%)

COC[C@H]1CN[C@H](C)CN1CC(=O)N1CC(C)(C)c2ncc(Cc3ccccc3OCCOCCOCCOCCOCCOCCOCCOCCNC[C@@H](C(=O)Nc3ccc4cnccc4c3)c3ccccc3)cc21
ROCK2 protein degradation rate (at 1 μm): B (75%>B≥50%)
ROCK2 protein degradation rate (at 10 μm): C (50%>C≥25%)

COC[C@H]1CN[C@H](C)CN1CC(=O)N1CC(C)(C)c2ncc(Cc3ccccc3OCCOCCN[C@H](C)c3ccc(C(=O)Nc4ccncc4)cc3)cc21
ROCK2 protein degradation rate (at 1 μm): D (D<25%)
ROCK2 protein degradation rate (at 10 μm): B (75%>B≥50%)

COC[C@H]1CN[C@H](C)CN1CC(=O)N1CC(C)(C)c2ncc(Cc3cccc(OCCOCCOCCOCCOCCN[C@H](Cc4cccc(F)c4)C(=O)Nc4ccc(-c5ccncc5)cc4)c3)cc21
ROCK2 protein degradation rate (at 1 μm): D (D<25%)
ROCK2 protein degradation rate (at 10 μm): B (75%>B≥50%)

COC[C@H]1CN[C@H](C)CN1CC(=O)N1CC(C)(C)c2ncc(Cc3ccccc3OCCOCCOCCOCCOCCOCCNC[C@@H](C(=O)Nc3ccc4cnccc4c3)c3ccccc3)cc21
ROCK2 protein degradation rate (at 1 μm): C (50%>C≥25%)
ROCK2 protein degradation rate (at 10 μm): A (A≥75%)

(R)-18-(3-Fluorobenzyl)-1-(6-(4-fluorobenzyl)-1-(2-((2R,5R)-2-(methoxymethyl)-5-methylpiperazin-1-yl)acetyl)-3,3-dimethyl-2,3-dihydro-1H-pyrrolo[3,2-b]pyridin-5-yl)-2-methyl-N-(4-(pyridin-4-yl)phenyl)-5,8,11,14-tetraoxa-2,17-diazanonadecan-19-amide
ROCK2 protein degradation rate (at 1 μm): D (D<25%)
ROCK2 protein degradation rate (at 10 μm): A (A≥75%)

COC[C@H]1CN[C@H](C)CN1CC(=O)N1CC(C)(C)c2ncc(Cc3cccc(OCCOCCOCCOCCOCCNC[C@@H](C(=O)Nc4ccc5cnccc5c4)c4ccccc4)c3)cc21
ROCK2 protein degradation rate (at 1 μm): C (50%>C≥25%)
ROCK2 protein degradation rate (at 10 μm): A (A≥75%)

COC[C@H]1CN[C@H](C)CN1CC(=O)N1CC(C)(C)c2ncc(Cc3cccc(OCCOCCOCCOCCOCCOCCOCCOCCN[C@H](C)c4ccc(C(=O)Nc5ccncc5)cc4)c3)cc21
ROCK2 protein degradation rate (at 1 μm): A (A≥75%)
ROCK2 protein degradation rate (at 10 μm): B (75%>B≥50%)

COC[C@H]1CN[C@H](C)CN1CC(=O)N1CC(C)(C)c2ncc(Cc3ccccc3OCCOCCOCCOCCN[C@H](C)c3ccc(C(=O)Nc4ccncc4)cc3)cc21
ROCK2 protein degradation rate (at 1 μm): A/A (A≥75%)
ROCK2 protein degradation rate (at 10 μm): A/A (A≥75%)

C[C@@H]1CN(CC(=O)N2CC(C)(C)c3ncc(Cc4ccc(F)cc4)cc32)[C@@H](CN(C)CCOCCN[C@H](C)c2ccc(C(=O)Nc3ccncc3)cc2)CN1
ROCK2 protein degradation rate (at 1 μm): C (50%>C≥25%)
ROCK2 protein degradation rate (at 10 μm): A (A≥75%)

C[C@@H]1CN(CC(=O)N2CC(C)(C)c3ncc(Cc4ccc(F)cc4)cc32)[C@@H](CN(C)CCOCCOCCOCCOCCOCCOCCOCCN[C@H](Cc2cccc(F)c2)C(=O)Nc2ccc(-c3ccncc3)cc2)CN1
ROCK2 protein degradation rate (at 1 μm): C (50%>C≥25%)
ROCK2 protein degradation rate (at 10 μm): A (A≥75%)

COC[C@H]1CN[C@H](C)CN1CC(=O)N1CC(C)(C)c2nc(CN(C)CCOCCN[C@H](C)c3ccc(C(=O)Nc4ccncc4)cc3)c(Cc3ccc(F)cc3)cc21
ROCK2 protein degradation rate (at 1 μm): D (D<25%)
ROCK2 protein degradation rate (at 10 μm): A (A≥75%)

COC[C@H]1CN[C@H](C)CN1CC(=O)N1CC(C)(C)c2ncc(Cc3ccccc3OCCOCCOCCNC[C@@H](C(=O)Nc3ccc4cnccc4c3)c3ccccc3)cc21
ROCK2 protein degradation rate (at 1 μm): A/A (A≥75%)
ROCK2 protein degradation rate (at 10 μm): A/A (A≥75%)

COC[C@H]1CN[C@H](C)CN1CC(=O)N1CC(C)(C)c2ncc(Cc3ccccc3OCCOCCOCCOCCOCCN[C@H](Cc3cccc(F)c3)C(=O)Nc3ccc(-c4ccncc4)cc3)cc21
ROCK2 protein degradation rate (at 1 μm): D (D<25%)
ROCK2 protein degradation rate (at 10 μm): B (75%>B≥50%)

C[C@@H]1CN(CC(=O)N2CC(C)(C)c3ncc(Cc4ccc(F)cc4)cc32)[C@@H](CN(C)CCOCCOCCOCCOCCOCCOCCN[C@H](Cc2cccc(F)c2)C(=O)Nc2ccc(-c3ccncc3)cc2)CN1
ROCK2 protein degradation rate (at 1 μm): D/D (D<25%)
ROCK2 protein degradation rate (at 10 μm): D/D (D<25%)

C[C@@H]1CN(CC(=O)N2CC(C)(C)c3ncc(Cc4ccc(F)cc4)cc32)[C@@H](CN(C)CCOCCOCCOCCOCCOCCOCCNC[C@@H](C(=O)Nc2ccc3cnccc3c2)c2ccccc2)CN1
ROCK2 protein degradation rate (at 1 μm): B (75%>B≥50%)
ROCK2 protein degradation rate (at 10 μm): A (A≥75%)

C[C@@H]1CN(CC(=O)N2CC(C)(C)c3ncc(Cc4ccc(F)cc4)cc32)[C@@H](CN(C)CCOCCOCCOCCNC[C@@H](C(=O)Nc2ccc3cnccc3c2)c2ccccc2)CN1
ROCK2 protein degradation rate (at 1 μm): C (50%>C≥25%)
ROCK2 protein degradation rate (at 10 μm): A (A≥75%)

C[C@@H]1CN(CC(=O)N2CC(C)(C)c3ncc(Cc4ccc(F)cc4)cc32)[C@@H](CN(C)CCOCCOCCN[C@H](C)c2ccc(C(=O)Nc3ccncc3)cc2)CN1
ROCK2 protein degradation rate (at 1 μm): D (D<25%)
ROCK2 protein degradation rate (at 10 μm): B (75%>B≥50%)

COC[C@H]1CN[C@H](C)CN1CC(=O)N1CC(C)(C)c2ncc(Cc3ccccc3OCCOCCOCCOCCOCCOCCOCCNC[C@@H](C(=O)Nc3ccc4cnccc4c3)c3ccccc3)cc21
ROCK2 protein degradation rate (at 1 μm): B (75%>B≥50%)
ROCK2 protein degradation rate (at 10 μm): A (A≥75%)

COC[C@H]1CN[C@H](C)CN1CC(=O)N1CC(C)(C)c2ncc(Cc3cccc(OCCOCCOCCOCCOCCOCCN[C@H](C)c4ccc(C(=O)Nc5ccncc5)cc4)c3)cc21
ROCK2 protein degradation rate (at 1 μm): B (75%>B≥50%)
ROCK2 protein degradation rate (at 10 μm): A (A≥75%)

COC[C@H]1CN[C@H](C)CN1CC(=O)N1CC(C)(C)c2nc(CN(C)CCOCCOCCOCCOCCN[C@H](C)c3ccc(C(=O)Nc4ccncc4)cc3)c(Cc3ccc(F)cc3)cc21
ROCK2 protein degradation rate (at 1 μm): A/A (A≥75%)
ROCK2 protein degradation rate (at 10 μm): A/A (A≥75%)

COC[C@H]1CN[C@H](C)CN1CC(=O)N1CC(C)(C)c2nc(CN(C)CCOCCOCCOCCNC[C@@H](C(=O)Nc3ccc4cnccc4c3)c3ccccc3)c(Cc3ccc(F)cc3)cc21
ROCK2 protein degradation rate (at 1 μm): D (D<25%)
ROCK2 protein degradation rate (at 10 μm): A (A≥75%)

COC[C@H]1CN[C@H](C)CN1CC(=O)N1CC(C)(C)c2nc(CN(C)CCOCCOCCOCCOCCOCCOCCN[C@H](C)c3ccc(C(=O)Nc4ccncc4)cc3)c(Cc3ccc(F)cc3)cc21
ROCK2 protein degradation rate (at 1 μm): D/D (D<25%)
ROCK2 protein degradation rate (at 10 μm): D/D (D<25%)

COC[C@H]1CN[C@H](C)CN1CC(=O)N1CC(C)(C)c2ncc(Cc3cccc(OCCOCCOCCOCCOCCOCCOCCN[C@H](Cc4cccc(F)c4)C(=O)Nc4ccc(-c5ccncc5)cc4)c3)cc21
ROCK2 protein degradation rate (at 1 μm): D (D<25%)
ROCK2 protein degradation rate (at 10 μm): B (75%>B≥50%)

COC[C@H]1CN[C@H](C)CN1CC(=O)N1CC(C)(C)c2ncc(Cc3cccc(OCCOCCOCCOCCOCCN[C@H](C)c4ccc(C(=O)Nc5ccncc5)cc4)c3)cc21
ROCK2 protein degradation rate (at 1 μm): C/C (50%>C≥25%)
ROCK2 protein degradation rate (at 10 μm): C/C (50%>C≥25%)

COC[C@H]1CN[C@H](C)CN1CC(=O)N1CC(C)(C)c2ncc(Cc3ccccc3OCCOCCN[C@H](Cc3cccc(F)c3)C(=O)Nc3ccc(-c4ccncc4)cc3)cc21
ROCK2 protein degradation rate (at 1 μm): C (50%>C≥25%)
ROCK2 protein degradation rate (at 10 μm): D (D<25%)

COC[C@H]1CN[C@H](C)CN1CC(=O)N1CC(C)(C)c2ncc(Cc3ccccc3OCCOCCOCCN[C@H](Cc3cccc(F)c3)C(=O)Nc3ccc(-c4ccncc4)cc3)cc21
ROCK2 protein degradation rate (at 1 μm): D (D<25%)
ROCK2 protein degradation rate (at 10 μm): A (A≥75%)
